Publication PMC9922763 (Frontiers in Molecular Biosciences, 2023)

B1: aSyn (61–95) BiFC fusion: aSyn residues 61–95, 17-residue linker, N-terminal or C-terminal fragment of Venus (domain or fragment)
chain: EQVTNVGGAVVTGVTAVAQKTVEGAGSIAAATGFVRPACKIPNDLKQKVMNH
notes: alpha-synuclein (aSyn), residues 61-95, the non-amyloid-B component (NAC) region, 35 amino acids; 17-amino acid linker between the protein of interest and the Venus fragment; One molecule stands for both constructs, aSVN (Venus 1-173) and aSVC (Venus 155-239); the label in each row tells which was used; A start methionine and residues coded by the restriction sites are not described; also called …
B2: IAPP BiFC fusion: human IAPP, 17-residue linker, N-terminal or C-terminal fragment of Venus (peptide)
chain: KCNTATCATQRLANFLVHSSNNFGAILSSTNVGSNTYRPACKIPNDLKQKVMNH
notes: human islet amyloid polypeptide (IAPP), the 37-amino acid long peptide cut from proIAPP; 17-amino acid linker between the protein of interest and the Venus fragment; One molecule stands for both constructs, IVN (Venus 1-173) and IVC (Venus 155-239); the label in each row tells which was used; a start methionine is not described; also called IVN; IVC; source: HEK293, transfected (pcDNA3.1 zeo+), …

Key:
[1] = target: B2; test: split reporter (BiFC, NanoBiT); BiFC with split Venus in transfected HEK293 cells; percent of fluorescent cells by flow cytometry (Accuri C6 plus) 24 h after transfection; settings: partners not purified
[2] = target: B1; test: as above; settings: partners not purified

percent of cells with a fluorescent BiFC signal [1] [%]	percent of cells with a fluorescent BiFC signal [2] [%]	Binder
9.8		B1
	11	B2
